Measured values from patent US9475817B2 (BRISTOL-MYERS SQUIBB COMPANY, priority 2012, dated 2016).

By UniProt entry, the sequences of proteins in these tests, tags left out. Where a name states a change or a piece, a line headed by the entry shows the natural chain unless it says otherwise.
UniProt P49674: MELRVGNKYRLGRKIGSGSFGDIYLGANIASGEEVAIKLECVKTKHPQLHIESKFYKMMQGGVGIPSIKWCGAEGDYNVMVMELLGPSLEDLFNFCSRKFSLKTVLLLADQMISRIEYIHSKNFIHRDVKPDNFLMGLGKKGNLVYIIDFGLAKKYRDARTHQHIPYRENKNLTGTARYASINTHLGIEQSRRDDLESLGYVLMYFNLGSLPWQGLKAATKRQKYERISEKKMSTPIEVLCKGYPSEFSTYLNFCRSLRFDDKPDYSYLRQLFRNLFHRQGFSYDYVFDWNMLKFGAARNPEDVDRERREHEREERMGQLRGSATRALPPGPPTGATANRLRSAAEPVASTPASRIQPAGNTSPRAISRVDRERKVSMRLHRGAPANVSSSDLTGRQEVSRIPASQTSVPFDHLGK
UniProt P48730: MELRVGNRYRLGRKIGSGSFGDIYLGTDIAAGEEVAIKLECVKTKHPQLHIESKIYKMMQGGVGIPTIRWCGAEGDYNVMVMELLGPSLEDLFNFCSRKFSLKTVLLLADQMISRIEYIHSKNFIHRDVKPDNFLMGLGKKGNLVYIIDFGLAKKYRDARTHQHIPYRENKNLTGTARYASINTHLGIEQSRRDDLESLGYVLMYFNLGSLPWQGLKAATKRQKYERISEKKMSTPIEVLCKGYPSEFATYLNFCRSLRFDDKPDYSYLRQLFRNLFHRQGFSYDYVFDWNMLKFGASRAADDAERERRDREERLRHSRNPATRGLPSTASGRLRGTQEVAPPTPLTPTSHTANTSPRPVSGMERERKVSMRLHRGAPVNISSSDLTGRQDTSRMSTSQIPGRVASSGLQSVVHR

The compounds below were run against CK1ε (Homo sapiens (Human), UniProt P49674) (assay: CK1ε kinase assay (Caliper LabChip, fluoresceinated peptide substrate)). Settings: 200 pM CK1ε, 50 μM ATP, 1.5 μM peptide substrate, 22 hours room temperature.
Format: biochemical
Experimental: (§1) CK1ε and CK1δ Kinase Assays
(§2) The kinase assay was performed in V-bottom 384-well plates. […] The reaction was incubated at room temperature for 22 hours and terminated by adding 45 μl of 35 mM EDTA to each sample. […] Compounds were dissolved at 10 mM in dimethylsulfoxide (DMSO) and evaluated at eleven concentrations. IC50 values were derived by non-linear regression analysis.

| SMILES | IC50 [µM] |
| --- | --- |
| COc1ncccc1C(=O)Nc1cn2nc(-c3cn(C)nc3-c3ccc(F)cc3)ccc2n1 [Compound 77, N-(6-(3-(4-fluorophenyl)-1-methyl-1H-pyrazol-4-yl)imidazo[1,2-b]pyridazin-2-yl)-2-methoxynicotinamide] | 0.0602 |
| Cn1nc(-c2ccc(F)cc2)c(-c2ccc3nc(NC(=O)c4ccncc4)cn3n2)c1C1CCN(Cc2cscn2)CC1 [Compound 171, N-(6-(3-(4-fluorophenyl)-1-methyl-5-(1-(thiazol-4-ylmethyl)piperidin-4-yl)-1H-pyrazol-4-yl)imidazo[1,2-b]pyridazin-2-yl) isonicotinamide] | 0.0117 |
| Cn1cc(C(=O)Nc2cn3nc(-c4cn(C)nc4-c4ccc(F)cc4)ccc3n2)cn1 [Compound 98, N-(6-(3-(4-fluorophenyl)-1-methyl-1H-pyrazol-4-yl)imidazo[1,2-b]pyridazin-2-yl)-1-methyl-1H-pyrazole-4-carboxamide] | 0.0061 |
| Cn1cc(-c2ccc3nc(NC(=O)c4cncc(Cl)c4)cn3n2)c(-c2ccc(F)cc2)n1 [Compound 46, 5-chloro-N-(6-(3-(4-fluorophenyl)-1-methyl-1H-pyrazol-4-yl)imidazo[1,2-b]pyridazin-2-yl)nicotinamide] | 0.0102 |

These compounds were tested against CK1δ (Homo sapiens (Human), UniProt P48730) (assay: CK1δ kinase assay (Caliper LabChip, fluoresceinated peptide substrate)). Settings: 200 pM CK1δ, 50 μM ATP, 1.5 μM peptide substrate, 22 hours room temperature.
Format: biochemical
Experimental: as §1, §2

| SMILES | IC50 [µM] |
| --- | --- |
| Cn1cc(-c2ccc3nc(NC(=O)c4ccnc(C(C)(C)C)c4)cn3n2)c(-c2ccc(F)cc2)n1 [Compound 50, 2-(tert-butyl)-N-(6-(3-(4-fluorophenyl)-1-methyl-1H-pyrazol-4-yl)imidazo[1,2-b]pyridazin-2-yl)isonicotinamide] | 0.0204 |
| COc1cc(C(=O)Nc2cn3nc(-c4cn(C)nc4-c4ccc(F)cc4)ccc3n2)nc(OC)n1 [Compound 39, N-(6-(3-(4-fluorophenyl)-1-methyl-1H-pyrazol-4-yl)imidazo[1,2-b]pyridazin-2-yl)-2,6-dimethoxypyrimidine-4-carboxamide] | 0.0102 |
| CN1CCC(C(=O)Nc2cn3nc(-c4cn(C)nc4-c4ccc(F)cc4)ccc3n2)CC1 [Compound 90, N-(6-(3-(4-fluorophenyl)-1-methyl-1H-pyrazol-4-yl)imidazo[1,2-b]pyridazin-2-yl)-1-methylpiepridine-4-carboxamide] | 0.0239 |
| Cn1cc(-c2ccc3nc(NC(=O)C4CCCCC4)cn3n2)c(-c2ccc(F)cc2)n1 [Compound 87, N-(6-(3-(4-fluorophenyl)-1-methyl-1H-pyrazol-4-yl)imidazo[1,2-b]pyridazin-2-yl)cyclohexanecarboxamide] | 0.0051 |
